Values quoted from earlier work in publication PMC7307925, “Human Serum Albumin Binding in a Vial: A Novel UV-pH Titration Method To Assist Drug Design” (Journal of Medicinal Chemistry, 2020).

Test system: human serum albumin (HSA)
Details: 49 (SI ref 1,2), cited from earlier work

In the case of `CC(=O)N1CCN(c2ccc(OCC3COC(Cn4ccnc4)(c4ccc(Cl)cc4Cl)O3)cc2)CC1` (centres unmarked) [Ketoconazole], the “HSA% (HPLC), literature data” value (listed as Ketoconazole 1) is given as 93% and the “HSA% (HPLC), literature data” value is given as 93.0%.

In the case of `CN1C(C(=O)Nc2ccccn2)=C(O)c2ccccc2S1(=O)=O` [Piroxicam], the “HSA% (HPLC), literature data” value is given as 96.8%.

For `CC1=C(CC(=O)O)c2cc(F)ccc2/C1=C\c1ccc([S+](C)[O-])cc1` (centres unmarked) [Sulindac], the “HSA% (HPLC), literature data” value (listed as sulindac) is given as 92.0% and the “HSA% (HPLC), literature data” value is given as 92%.

Read-outs that look alike come from different tables or passages of the source.
